# Permeability data for macrocyclic peptides

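Conditions beyond the assay type are not listed; see the original paper. Other peptides of the study may be missing here. Peptides that the database sets to -10, its floor, are left out.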

PAMPA measures passive passage through an artificial lipid membrane. Permeability is given as log10 of P in cm/s; higher (less negative) is more permeable.

PAMPA (log10 cm/s),structure (SMILES)
-7.04,CCCC[C@@H]1NC(=O)[C@H](CC(C)C)N(C)C(=O)CN(CCCN2CCCC2=O)C(=O)[C@H](C)NC(=O)CN(Cc2ccc3c(c2)OCO3)C(=O)[C@H]2CCCN2C1=O
-7.80,CCCC[C@@H]1NC(=O)[C@H](CC(C)C)N(C)C(=O)CN(CCCc2ccccc2)C(=O)[C@H](Cc2ccc3ccccc3c2)NC(=O)CN(Cc2ccccc2Cn2cccn2)C(=O)[C@H]2CCCN2C1=O
-6.64,CCCC[C@@H]1NC(=O)[C@H](CC(C)C)N(C)C(=O)CN(CC2CCOCC2)C(=O)[C@H](Cc2ccc3ccccc3c2)NC(=O)CN(Cc2cc(CC(C)C)on2)C(=O)[C@H]2CCCN2C1=O
-6.85,CCCC[C@@H]1NC(=O)[C@H](CC(C)C)N(C)C(=O)CN(CCCc2cnn(C)c2)C(=O)[C@H](Cc2ccc3ccccc3c2)NC(=O)CN(Cc2cc(CC(C)C)on2)C(=O)[C@H]2CCCN2C1=O
-5.52,CCCC[C@@H]1NC(=O)[C@H](CC(C)C)N(C)C(=O)CN(Cc2ccccc2)C(=O)[C@H](Cc2ccccc2)NC(=O)CN(CCCOC(C)C)C(=O)[C@H]2CCCN2C1=O
-5.18,CCCC[C@@H]1NC(=O)[C@H](CC(C)C)N(C)C(=O)CN(CC2CCCCC2)C(=O)[C@H](CC(C)C)NC(=O)CN(CCN2CCOCC2)C(=O)[C@H]2CCCN2C1=O
-6.79,CCCC[C@@H]1NC(=O)[C@H](CC(C)C)N(C)C(=O)CN(CCOc2ccccc2)C(=O)[C@H](Cc2ccccc2)NC(=O)CN(Cc2ccccc2Cn2cccn2)C(=O)[C@H]2CCCN2C1=O
-5.80,CCCC[C@@H]1NC(=O)[C@H](CC(C)C)N(C)C(=O)CN(CCc2cccnc2)C(=O)[C@H](Cc2ccccc2)NC(=O)CN(Cc2ccc3c(c2)OCO3)C(=O)[C@H]2CCCN2C1=O
-8.47,CCCC[C@@H]1NC(=O)[C@H](CC(C)C)N(C)C(=O)CN(CCCc2ccccc2)C(=O)[C@H](Cc2ccccc2)NC(=O)CN(Cc2ccc(Cl)cc2)C(=O)[C@H]2CCCN2C1=O
-5.37,CCCC[C@@H]1NC(=O)[C@H](CC(C)C)N(C)C(=O)CN(CC2CCOCC2)C(=O)[C@H](Cc2ccc3ccccc3c2)NC(=O)CN(CCC)C(=O)[C@H]2CCCN2C1=O
-5.90,CCCC[C@@H]1NC(=O)[C@H](CC(C)C)N(C)C(=O)CN(CCCN2CCCC2=O)C(=O)[C@H](CC(C)C)NC(=O)CN(CCCCc2ccccc2)C(=O)[C@H]2CCCN2C1=O
-6.24,CCCC[C@@H]1NC(=O)[C@H](CC(C)C)N(C)C(=O)CN(CC2CCCCC2)C(=O)[C@H](C)NC(=O)CN(CCCCc2ccccc2)C(=O)[C@H]2CCCN2C1=O
-8.12,CCCC[C@@H]1NC(=O)[C@H](CC(C)C)N(C)C(=O)CN(CCOC)C(=O)[C@H](C)NC(=O)CN(CCN2CCOCC2)C(=O)[C@H]2CCCN2C1=O
-5.16,CCCC[C@@H]1NC(=O)[C@H](CC(C)C)N(C)C(=O)CN(CCCc2ccccc2)C(=O)[C@H](C)NC(=O)CN(CC)C(=O)[C@H]2CCCN2C1=O
-5.36,CCCC[C@@H]1NC(=O)[C@H](CC(C)C)N(C)C(=O)CN(CCOC)C(=O)[C@H](Cc2ccccc2)NC(=O)CN(Cc2ccc3c(c2)OCO3)C(=O)[C@H]2CCCN2C1=O
-6.20,CCCC[C@@H]1NC(=O)[C@H](CC(C)C)N(C)C(=O)CN(CC2CCCCC2)C(=O)[C@H](CC(C)C)NC(=O)CN(CC(C)C)C(=O)[C@H]2CCCN2C1=O
-5.11,CCCC[C@@H]1NC(=O)[C@H](CC(C)C)N(C)C(=O)CN(CCCc2ccccc2)C(=O)[C@H](CC(C)C)NC(=O)CN(CC)C(=O)[C@H]2CCCN2C1=O
-7.00,CCCC[C@@H]1NC(=O)[C@H](CC(C)C)N(C)C(=O)CN(CCCc2ccccc2)C(=O)[C@H](Cc2ccc3ccccc3c2)NC(=O)CN(CCCOC(C)C)C(=O)[C@H]2CCCN2C1=O
-5.19,CCCC[C@@H]1NC(=O)[C@H](CC(C)C)N(C)C(=O)CN(CCOc2ccccc2)C(=O)[C@H](CC(C)C)NC(=O)CN(CC)C(=O)[C@H]2CCCN2C1=O
-7.72,CCCC[C@@H]1NC(=O)[C@H](CC(C)C)N(C)C(=O)CN(CCCN2CCCC2=O)C(=O)[C@H](C)NC(=O)CN(CCCOC(C)C)C(=O)[C@H]2CCCN2C1=O

Excerpt, the opening 3 entries:

{"smiles": "CCCC[C@@H]1NC(=O)[C@H](CC(C)C)N(C)C(=O)CN(CCCN2CCCC2=O)C(=O)[C@H](C)NC(=O)CN(Cc2ccc3c(c2)OCO3)C(=O)[C@H]2CCCN2C1=O", "PAMPA (log10 cm/s)": "-7.04"}
{"smiles": "CCCC[C@@H]1NC(=O)[C@H](CC(C)C)N(C)C(=O)CN(CCCc2ccccc2)C(=O)[C@H](Cc2ccc3ccccc3c2)NC(=O)CN(Cc2ccccc2Cn2cccn2)C(=O)[C@H]2CCCN2C1=O", "PAMPA (log10 cm/s)": "-7.80"}
{"smiles": "CCCC[C@@H]1NC(=O)[C@H](CC(C)C)N(C)C(=O)CN(CC2CCOCC2)C(=O)[C@H](Cc2ccc3ccccc3c2)NC(=O)CN(Cc2cc(CC(C)C)on2)C(=O)[C@H]2CCCN2C1=O", "PAMPA (log10 cm/s)": "-6.64"}

Collected by the curators of CycPeptMPDB (Li et al. 2023) from Furukawa et al. 2016, doi:10.1021/acs.jmedchem.6b01246.